Results on 1 compound are retold here after PubChem BioAssay AID493227 (Broad Institute, 2011).

Calls of active or inactive are those of the source.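 The calls were made as follows: active = fitted curve reaches 40% activation at a dose no higher than the top dose validly tested; inconclusive = flat curve between 30 and 70% activation, or poor fit; inactive = the rest, including signal moving against the expected rise.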 Some results are limits rather than exact numbers.

For the test, the system named is U2OS HRE-luciferase reporter, luminescence, HIF activation. Kind of test: HRE-luciferase activation in U2OS cells, dose response, cell-based, luminescence, U2OS HRE-luc, dry powder, set 8 (AID 493227). In short, it runs like this:
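incubation = 24 h plating, 24 h compound treatment | assay system = U2OS 3×HRE-luciferase reporter cells | quantity = 6,000 cells/well | medium = phenol red-free DMEM, 10% FBS | technique = Steady-Glo luminescence | compound = 8 concentrations, 3-fold dilution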

As to `O=c1[nH]c2ccccc2n1C1CCN(Cc2ccc(O)c3ncccc23)CC1`, the AC40 is inactive: > 38 µM.
